From patent US8071630B2 (priority 2002, dated 2011)

Tested on: white mice
Assay: Example 4: inhibition of (−)-trans-(1S,2S)-U-50488 toxicity by its potentised enantiomer in white mice, blind randomised placebo-controlled, survival next morning
Conditions: i.p., estimated with the first 52 mice

**Q.** Which LD50 does the source give for (−)-trans-(1S,2S)-U-50488 here?
**A.** Its LD50 is 25 mg/kg.
